Source: ChEMBL document CHEMBL1145905, “Design and synthesis of novel dimeric morphinan ligands for kappa and micro opioid receptors” (J Med Chem, 2003)

Sequences of proteins named here, by UniProt entry; tags and fusion partners are left off. A change or cut given only in a name is not applied to a line headed by its entry.
UniProt P41145: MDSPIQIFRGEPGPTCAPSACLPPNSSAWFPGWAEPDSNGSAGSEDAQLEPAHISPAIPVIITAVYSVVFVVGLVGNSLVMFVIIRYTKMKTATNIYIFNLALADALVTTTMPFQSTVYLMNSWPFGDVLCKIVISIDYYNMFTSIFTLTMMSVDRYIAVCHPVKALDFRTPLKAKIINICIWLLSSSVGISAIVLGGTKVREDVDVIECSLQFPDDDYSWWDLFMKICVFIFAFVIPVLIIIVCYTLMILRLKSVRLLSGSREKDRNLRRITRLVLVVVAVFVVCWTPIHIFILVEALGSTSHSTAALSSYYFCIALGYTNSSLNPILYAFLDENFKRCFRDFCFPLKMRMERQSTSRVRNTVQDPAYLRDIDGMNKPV

Molecular target: Kappa-type opioid receptor (Homo sapiens, UniProt P41145)
Assay: Percent maximal stimulation in stimulating [35S]-GTP-gamma S binding mediated by the Opioid receptor kappa 1 in chinese Hamster Ovary (CHO) cell membranes was determined
Assay type: functional

## Oc1ccc2c(c1)[C@@]13CCCC[C@H]1[C@@H](C2)N(CC1CC1)CC3 [CYCLORPHAN]
  Emax: 90%
